This is an account of results in US20060029743A1, “Wood preservatives and methods of wood preservation” (priority 2004, published 2006).

Common to all, as to assay: 6-well plate assay, minimal inhibitory concentration
Holding throughout (format): cell-based
Common to all, as to settings: 6-well agar plate; lowest concentration with no growth after seven days

One experiment has as its system Chaetomium globosum. On the procedure:
(§1) The minimal inhibitory concentration of fungicides against eight fungi was determined in 6-well microtiter plates. Minimal inhibitory concentration is defined as the lowest concentration at which no fungus growth is evident after seven days. A group of eight fungi were used in a screen to identify potential active ingredients to preserve wood. The eight fungi, their classification, and the growth media used to culture them are listed below:
(§2) Growth media were purchased from Difco (from Beckton Dickinson and Co., Sparks, Md.). The growth media were added to water to 2% w/v and autoclaved at 121° C. for 30 min. Autoclaved media were allowed to cool down to ˜50° C. Test chemicals were dissolved in DMSO (dimethyl sulfoxide) individually at 10 mg/mL to generate stock solutions. An appropriate amount of a stock solution was then added to the appropriate growth medium at 50° C. to make up the test media containing various concentrations of individual test chemicals. 10 mL of the medium was added to each well of a 6-well plate and allowed to solidify at room temperature. For each plate, the first well had no chemical, and the remaining five wells contained a particular test chemical at five different concentrations. Eight such plates were prepared for each chemical, using the eight media listed above for the eight test organisms.
(§3) After the media solidified and cooled, a plug (˜2 mm×2 mm) of agar growth medium with fresh grown mycelium from the appropriate fungal culture was used to inoculate each well. The plate was placed in an incubator, and the growth of the fungus monitored. After 4 to 7 days, the growth was scored manually.

In another experiment the test system is Trametes versicolor. On the procedure:
as §1, §2, §3

The subject of the next experiment is Gloeophyllum trabeum. On the procedure:
as §1, §2, §3

The subject of another experiment is Irpex lacteus. On the procedure:
as §1, §2, §3

Experiment [1] concerns Phanerochaete chrysosporium. Here is the method: as §1, §2, §3
The test system of another experiment is Antrodia vaillantii. On the procedure:
as §1, §2, §3

A further experiment relates to Postia placenta. On the procedure:
as §1, §2, §3

Regarding `CCOc1nc(C(Cl)(Cl)Cl)ns1` [Terrazole], the “Effectiveness at Inhibiting Wood-Rotting Fungi, SR1 (minimal inhibitory concentration)” value in the experiment with Chaetomium globosum is 3 (“3” indicates inhibition (if any) only at >100 ppm). Besides, the “Effectiveness at Inhibiting Wood-Rotting Fungi, WR1 (minimal inhibitory concentration)” value in the experiment with Trametes versicolor was 1 (“1” indicates effective inhibition at 1 ppm or less). In addition, in the experiment with Gloeophyllum trabeum, the “Effectiveness at Inhibiting Wood-Rotting Fungi, BR2 (minimal inhibitory concentration)” value is reported as 3 (“3” indicates inhibition (if any) only at >100 ppm). Moreover, the “Effectiveness at Inhibiting Wood-Rotting Fungi, WR2 (minimal inhibitory concentration)” value in the experiment on Irpex lacteus is on record as 1 (“1” indicates effective inhibition at 1 ppm or less). Also, the “Effectiveness at Inhibiting Wood-Rotting Fungi, WR3 (minimal inhibitory concentration)” value in experiment [1] is listed as 1 (“1” indicates effective inhibition at 1 ppm or less). In addition, in the experiment on Antrodia vaillantii, the “Effectiveness at Inhibiting Wood-Rotting Fungi, BR3 (minimal inhibitory concentration)” value is listed as 2 (“2” indicates inhibition at about 1-100 ppm). In addition, in the experiment on Postia placenta, the “Effectiveness at Inhibiting Wood-Rotting Fungi, BR1 (minimal inhibitory concentration)” value is 3 (“3” indicates inhibition (if any) only at >100 ppm).
